The record followed here is ChEMBL document CHEMBL1138589, “Development of novel aminoglycoside (NB54) with reduced toxicity and enhanced suppression of disease-causing premature stop mutations” (J Med Chem, 2009).

The assay has as its system Ribosomal RNA A-site. Kind of assay: Binding affinity to human cytoplasmic ribosomal RNA A-site. Format: nucleic-acid assay. In short, it runs like this:
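UV melting of RNA A-site model oligonucleotide, 2 µM in strand, drug 0 to 10 µM, in 10 mM EPPS (pH 7.0), 10 mM NaCl. RNA preheated 85 °C 5 min and slowly cooled. Absorbance read at 274 nm, 1 cm path, 0.5 °C steps with 1.5 min equilibration per step; ΔTm derived.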

Compound `NC[C@@H]1O[C@H](O[C@H]2[C@@H](O)[C@H](O[C@@H]3[C@@H](O)[C@H](N)C[C@H](N)[C@H]3O[C@H]3O[C@H](CO)[C@@H](O)[C@H](O)[C@H]3N)O[C@@H]2CO)[C@H](N)[C@@H](O)[C@@H]1O` [PAROMOMYCIN] displayed a Ka of 3.9 ×10⁻⁵ /M.
